Reference: PMC3115046, “Analyzing Airway Inflammation with Chemical Biology: Dissection of Acidic Mammalian Chitinase Function with a Selective Drug-like Inhibitor” (Chemistry & Biology, 2011)

Molecular target: T1, human AMCase (hAMCase) (Homo sapiens, UniProt Q9BZP6)
T1 construct: A fragment corresponding to hAMCase 22-398 (bp 64–1194) was ligated into the pPIC9 vector; made in house; host or cells: Pichia pastoris GS115
T1 sequence (Q9BZP6 22-398): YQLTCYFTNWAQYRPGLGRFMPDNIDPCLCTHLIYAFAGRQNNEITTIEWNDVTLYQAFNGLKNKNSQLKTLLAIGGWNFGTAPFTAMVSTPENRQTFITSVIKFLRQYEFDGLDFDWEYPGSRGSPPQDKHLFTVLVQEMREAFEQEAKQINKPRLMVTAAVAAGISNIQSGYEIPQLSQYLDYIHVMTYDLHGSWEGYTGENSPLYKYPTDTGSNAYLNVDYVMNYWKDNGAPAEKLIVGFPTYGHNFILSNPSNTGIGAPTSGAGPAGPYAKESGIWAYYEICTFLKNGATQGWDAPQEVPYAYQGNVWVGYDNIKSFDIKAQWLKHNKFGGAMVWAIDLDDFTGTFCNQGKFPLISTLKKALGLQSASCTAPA
Assay: Chitinase activity assay with fluorescent 4-MU substrate, hAMCase
Assay type: biochemical
Conditions: Lineweaver-Burk plot; read-out: Ki against hAMCase, competitive inhibition model

## Cn1cnc2c1c(=O)n(CCCn1c(=O)c3[nH]cnc3n(C)c1=O)c(=O)n2C [bisdionin F]
  Ki: 0.42 ± 0.01 µM
